Drawing on ChEMBL document CHEMBL2029213, “Multiple determinants for selective inhibition of apicomplexan calcium-dependent protein kinase CDPK1” (J Med Chem, 2012), this text covers Ki for one compound.

Amino acid sequences for entries named in this document (tags omitted).
UniProt P00519, whole entry: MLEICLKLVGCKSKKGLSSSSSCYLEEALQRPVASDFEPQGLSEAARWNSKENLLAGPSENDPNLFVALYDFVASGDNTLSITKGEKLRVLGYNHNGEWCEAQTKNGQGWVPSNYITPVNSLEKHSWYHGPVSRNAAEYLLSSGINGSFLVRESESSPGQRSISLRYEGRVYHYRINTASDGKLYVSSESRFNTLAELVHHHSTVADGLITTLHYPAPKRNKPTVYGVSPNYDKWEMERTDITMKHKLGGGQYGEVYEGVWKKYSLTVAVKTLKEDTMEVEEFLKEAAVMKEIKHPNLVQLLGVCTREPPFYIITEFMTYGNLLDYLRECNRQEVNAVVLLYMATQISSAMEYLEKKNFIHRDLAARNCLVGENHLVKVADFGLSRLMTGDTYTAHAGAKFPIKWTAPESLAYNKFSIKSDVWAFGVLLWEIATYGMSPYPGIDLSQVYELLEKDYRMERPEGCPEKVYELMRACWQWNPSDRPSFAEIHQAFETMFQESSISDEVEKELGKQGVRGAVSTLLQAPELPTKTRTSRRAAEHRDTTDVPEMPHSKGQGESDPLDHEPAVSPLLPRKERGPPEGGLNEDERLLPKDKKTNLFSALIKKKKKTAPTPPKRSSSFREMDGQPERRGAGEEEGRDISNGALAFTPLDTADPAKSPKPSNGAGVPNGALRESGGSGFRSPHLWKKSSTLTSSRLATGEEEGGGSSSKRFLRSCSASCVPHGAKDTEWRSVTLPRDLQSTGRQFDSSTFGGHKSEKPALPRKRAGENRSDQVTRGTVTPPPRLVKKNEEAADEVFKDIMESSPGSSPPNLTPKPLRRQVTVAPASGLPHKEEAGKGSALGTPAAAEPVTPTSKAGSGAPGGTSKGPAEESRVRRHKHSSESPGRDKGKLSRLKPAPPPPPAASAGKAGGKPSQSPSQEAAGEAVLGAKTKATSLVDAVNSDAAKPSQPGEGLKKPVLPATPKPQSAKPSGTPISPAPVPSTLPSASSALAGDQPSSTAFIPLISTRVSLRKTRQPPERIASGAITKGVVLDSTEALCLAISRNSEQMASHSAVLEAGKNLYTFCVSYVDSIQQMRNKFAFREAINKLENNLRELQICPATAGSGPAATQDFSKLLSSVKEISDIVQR

For this assay, the target named is Tyrosine-protein kinase ABL1 (Homo sapiens, UniProt P00519).

Structures are written as SMILES. pKi: −log10 of the molar value.

`CC(C)n1nc(-c2cc3c(Cl)cccc3[nH]2)c2c(N)ncnc21` had a pKi of 6.55.
